pIC50: −log10 of the molar value. Read-outs that look alike come from different tables or passages of the source. Values belong to the compound of their own block, whether it stands above or below them.
Assays:
[1] = target: T1, human CTPS1 (Homo sapiens, UniProt P17812); experiment: Human CTPS1 enzyme inhibition, ADP-Glo Max assay
[2] = target: T1, human CTPS1; experiment: RapidFire/MS-based enzyme selectivity assay (human CTPS1 versus CTPS2), CTPS1 isoform; format: biochemical; settings: Table 16, human CTPS1 over human CTPS2, RapidFire/MS IC50 values
Method: Human CTPS1 Versus CTPS2 Selectivity Assessment by RapidFire/MS Analysis.
The enzyme inhibitory activities against each target isoform of interest may be determined for the compounds of the invention using an optimised RapidFire high-throughput mass spectrometry (RF/MS) assay format. RF/MS assays for both human CTPS1 and CTPS2 may be performed in assay buffer consisting of 50 mM HEPES (Merck), 20 mM MgCl2, 5 mM KCl, 1 mM DTT, 0.01% Tween-20, pH to 8.0 accordingly. Human full-length active C-terminal FLAG-His-tag CTPS1 (UniProtKB—P17812, CTPS1[1-591]-[…] (CTPS1[1-591]-SEQ ID NO: 1)) may be obtained from Proteros biostructures GmbH. […]
Human CTPS (1 or 2) protein may be prepared in 1× assay buffer to the final working protein concentration required for the reaction. […] Each mixture may be incubated for an appropriate amount of time per isoform within the determined linear phase of the reaction at 25° C. […]
In all cases, the enzyme converts UTP to CTP. […] Readout for data analysis may be calculated as the ratio between the peak area of the product CTP and the internal standard ^13C9-^15N3-CTP. […]
(R=ratio/readout, P=product signal area, IS=internal standard signal area) […]
(I=Inhibition, Rneq=median of negative control readout values, Rpos=median of positive control readout values, Rsample=sample readout value) […]

SMILES: CCOc1cncc(-c2cnc(NC(=O)C(C)(C)c3ccnc(NS(=O)(=O)C4CC4)n3)c(F)c2)n1
- pIC50 ([1]; read-out: CTPS1 (Human CTPS1 Enzyme Inhibition data grouped by potency range, IC50), ADP-Glo Max assay, human full length CTPS1): > 7.00

- pIC50 ([1]; read-out: CTPS1 (Human CTPS1 Enzyme Inhibition data grouped by potency range), Table 11, ADP-Glo Max assay): > 7.00
- Selectivity (fold selectivity between CTPS1 and CTPS2) [2]: ++ (>30-60 fold (++))
SMILES: CCOc1cncc(-c2ccc(C(=O)NC(C)(C)c3csc(NS(=O)(=O)C4CC4)n3)c(F)c2)n1

- pIC50 ([1]; read-out: Human CTPS1 Enzyme Inhibition, IC50 grouped by potency range (CTPS1), ADP-Glo Max assay, Table 10): 6.00 to 7.00
SMILES: CC(C)(C(=O)Nc1ccc(-c2cccnc2)cc1Cl)c1csc(NS(=O)(=O)C2CC2)n1

— patent US20230086703A1, “N-(4-(5-chloropyridin-3-yl)phenyl)-2-(2-(cyclopropanesulfonamido)pyrimidin-4-yl) butanamide derivatives and related compounds as human CTPS1 inhibitors for the treatment of proliferative diseases” (Step Pharma S.A.S., priority 2019, published 2023)
